Measurements reported in patent publication US20240299352A1, “COMBINATION THERAPIES WITH SETD2 INHIBITORS” (Epizyme, Inc., priority 2021, published 2024).

How the values were obtained:
SUDHL2 = assay: Co-treatment combination study with Cpd. No. 15, CellTiter-Glo viability, Loewe Volume; assay type: cell-based; settings: in combination with Cpd. No. 15, seven days, DLBCL cell line SUDHL2
[1] = test system: diffuse large B-cell lymphoma (DLBCL) cell lines; assay: Co-treatment combination study with Cpd. No. 15, further cell lines (Table F), CellTiter-Glo viability, Loewe Volume; settings: co-treatment with Cpd. No. 15, cell line TMD8 (Cat. No. M-097)
MAVER1 = assay: Co-treatment combination study with Cpd. No. 15, CellTiter-Glo viability, Loewe Volume; assay type: cell-based; settings: in combination with Cpd. No. 15, seven days, mantle cell lymphoma cell line MAVER1 (CRL-3008)
JEKO1 = assay: as above; assay type: cell-based; settings: in combination with Cpd. No. 15, seven days, mantle cell lymphoma cell line JEKO1 (CRL-3006)
SUDHL5 = assay: as above; assay type: cell-based; settings: in combination with Cpd. No. 15, seven days, DLBCL cell line SUDHL5
RL = assay: as above; assay type: cell-based; settings: in combination with Cpd. No. 15; 6-Day Cotreatment; DLBCL cell line RL
Z138 = assay: as above; assay type: cell-based; settings: in combination with Cpd. No. 15, seven days, mantle cell lymphoma cell line Z138 (CRL-3001)
KARPAS422 = assay: as above; assay type: cell-based; settings: in combination with Cpd. No. 15, seven days, DLBCL cell line KARPAS422
WILL2 = assay: as above; assay type: cell-based; settings: in combination with Cpd. No. 15, seven days, DLBCL cell line WILL2
MINO = assay: as above; assay type: cell-based; settings: in combination with Cpd. No. 15, seven days, mantle cell lymphoma cell line MINO (CRL-3000)
DOHH2 = assay: as above; assay type: cell-based; settings: in combination with Cpd. No. 15, seven days, DLBCL cell line DOHH2
WSUNHL = assay: as above; assay type: cell-based; settings: in combination with Cpd. No. 15, seven days, DLBCL cell line WSUNHL
Pfeiffer = assay: as above; assay type: cell-based; settings: in combination with Cpd. No. 15, seven days, DLBCL cell line Pfeiffer
HT = assay: as above; assay type: cell-based; settings: in combination with Cpd. No. 15, seven days, DLBCL cell line HT
DB = assay: as above; assay type: cell-based; settings: in combination with Cpd. No. 15, seven days, DLBCL cell line DB
SUDHL10 = assay: as above; settings: in combination with Cpd. No. 15; 5-Day Cotreatment; DLBCL cell line SUDHL10
SUDHL8 = assay: as above; assay type: cell-based; settings: in combination with Cpd. No. 15, seven days, DLBCL cell line SUDHL8
[2] = test system: diffuse large B-cell lymphoma (DLBCL) cell lines; assay: Pre-treatment model combination study with Cpd. No. 15 (7 days pre-treatment, then combination; Table G), CellTiter-Glo viability, Loewe Volume; settings: 7 days pre-treatment with Cpd. No. 15, then combination, cell line OCILY7 (Cat. No. ACC 688)

Compound | Combination effect (Loewe Volume) SUDHL2 (SUDHL2) | Combination effect with Cpd. No. 15 (Loewe Volume class), TMD8 [1] | Combination effect (Loewe Volume) MAVER1 (MAVER1) | Combination effect (Loewe Volume) JEKO1 (JEKO1) | Combination effect (Loewe Volume) SUDHL5 (SUDHL5) | Combination effect (Loewe Volume) RL (RL) | Combination effect (Loewe Volume) Z138 (Z138) | Combination effect (Loewe Volume) KARPAS422 (KARPAS422) | Combination effect (Loewe Volume) WILL2 (WILL2) | Combination effect (Loewe Volume) MINO (MINO) | Combination effect (Loewe Volume) DOHH2 (DOHH2) | Combination effect (Loewe Volume) WSUNHL (WSUNHL) | Combination effect (Loewe Volume) Pfeiffer (Pfeiffer) | Combination effect (Loewe Volume) HT (HT) | Combination effect (Loewe Volume) DB (DB) | Combination effect (Loewe Volume) SUDHL10 (SUDHL10) | Combination effect (Loewe Volume) SUDHL8 (SUDHL8) | Combination effect with Cpd. No. 15 (Loewe Volume class), OCILY7 [2]
CC[C@]1(O)C[C@H]2CN(CCc3c([nH]c4ccccc34)[C@@](C(=O)OC)(c3cc4c(cc3OC)N(C=O)[C@H]3[C@@](O)(C(=O)OC)[C@H](OC(C)=O)[C@]5(CC)C=CCN6CC[C@]43[C@@H]65)C2)C1 [Vincristine, vincristine] | Additivity (between 1 and −1: additivity) | Additivity (between 1 and −1: additivity) | Synergy (VLoewe>1: synergy) | Additivity (between 1 and −1: additivity) | Synergy (VLoewe>1: synergy) | Synergy (VLoewe>1: synergy) | Additivity (between 1 and −1: additivity) | Synergy (VLoewe>1: synergy) | Additivity (between 1 and −1: additivity) | Additivity (between 1 and −1: additivity) | Synergy (VLoewe>1: synergy) | – | – | – | – | – | – | –
oxaliplatin | – | – | – | – | Additivity (between 1 and −1: additivity) | – | – | – | Additivity (between 1 and −1: additivity) | – | – | Synergy (VLoewe>1: synergy) | Additivity (between 1 and −1: additivity) | Additivity (between 1 and −1: additivity) | Additivity (between 1 and −1: additivity) | Additivity (between 1 and −1: additivity) | Additivity (between 1 and −1: additivity) | –
CC[C@]1(O)C[C@H]2CN(CCc3c([nH]c4ccccc34)[C@@](C(=O)OC)(c3cc4c(cc3OC)N(C=O)[C@H]3[C@@](O)(C(=O)OC)[C@H](OC(C)=O)[C@]5(CC)C=CCN6CC[C@]43[C@@H]65)C2)C1 [Vincristine (O)] | – | – | – | – | – | – | – | – | – | – | – | – | – | – | – | – | – | Additivity (between 1 and −1: additivity)
